Measurements reported in PMC2770460.

Tests used:
[1] = molecular target: recombinant full-length mammalian Tpr (6xHis-Tpr) (not stated (mammalian)) (UniProt P12270); test: ELISA; solid phase binding assay: Maxisorp microtiter plates coated with 25 ng of Tpr or C-Tpr; increasing concentrations of the soluble protein; bound protein detected with primary antibodies and horseradish peroxidase-conjugated secondary antibodies (TMB); apparent Kd from B = Bmax x Y/(Kd + Y); CRM1, NES and RanGTP at equimolar concentrations
[2] = molecular target: His-S-tag-importin β (UniProt Q14974); test: ELISA; solid phase assay: 100 nM importin β on Tpr adsorbed to microtiter wells, without or with 0.1, 0.2, 0.5 and 1 μM RanGMP-PNP or RanGDPβS

Kd [1]	percent of importin β binding to Tpr left with a 10 fold molar excess of RanGMP-PNP [2]	Substance
83 nM	–	CRM1+NES+RanGTP (trimeric CRM1 export complex) (from UniProt O14980 1-1071; P62826 1-216) (complex; other documents disagree on this pair)
–	42%	RanGMP-PNP (from UniProt P62826 1-216) (natural protein; other documents disagree on this pair)
